Results on 25 molecules are retold here after US8962608B2, “Cycloalkylnitrile pyrazole carboxamides as janus kinase inhibitors” (Merck Sharp & Dohme Corp., priority 2011, dated 2015).

Protein sequences, listed by entry. Tags and fused reporters are not part of them. Residues count along the entry.
UniProt O60674, 849-1124: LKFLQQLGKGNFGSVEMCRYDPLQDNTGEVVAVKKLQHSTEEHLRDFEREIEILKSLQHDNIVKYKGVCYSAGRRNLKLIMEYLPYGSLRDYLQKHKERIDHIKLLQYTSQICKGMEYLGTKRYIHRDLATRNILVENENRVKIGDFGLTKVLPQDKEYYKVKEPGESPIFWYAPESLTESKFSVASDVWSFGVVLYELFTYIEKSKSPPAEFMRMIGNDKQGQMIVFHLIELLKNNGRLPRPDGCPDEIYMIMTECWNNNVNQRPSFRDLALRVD

A word on the IC50: it is the concentration needed to halve the response being measured.
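Note: biochemical JAK kinase assay with HTRF detection.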

The target of the assay is JAK2 (recombinant purified GST-tagged catalytic domain) (Homo sapiens (Human), UniProt O60674). Put plainly: biochemical.
On to `C[C@@](O)(c1ccc(Nc2nn([C@H]3CCCC[C@@H]3C#N)cc2C(N)=O)cn1)C(F)(F)F` (single isomer, unassigned) [Example 17-35, 1-[(1S,2S or 1R,2R)-2-cyanocyclohexyl]-3-({6-[(1R or 1S)-2,2,2-trifluoro-1-hydroxy-1-methylethyl]pyridin-3-yl}amino)-1H)-pyrazole-4-carboxamide], for which the IC50 worked out at 15 nM. The value for `C[C@](O)(c1ccc(Nc2nn([C@H]3CCCC[C@@H]3C#N)cc2C(N)=O)cn1)C(F)F` (single isomer, unassigned) [Example 17-39, 1-[(1S,2S or 1R,2R)-2-cyanocyclohexyl]-3-({6-[(1S or 1R)-2,2-difluoro-1-hydroxy-1-methylethyl]pyridin-3-yl}amino)-1H-pyrazole-4-carboxamide] was 3 nM. As to `N#C[C@H]1CCCC[C@@H]1n1cc(C(N)=O)c(Nc2cc(F)cc(Cl)c2)n1` (single isomer, unassigned) [Example 17-51, 3-[(3-chloro-5-fluorophenyl)amino]-1-[(1S,2S or 1R,2R)-2-cyanocyclohexyl]-1H-pyrazole-4-carboxamide], the IC50 came out at 42 nM. The value for `CC(C)NS(=O)(=O)c1ccc(Nc2nn([C@H]3CCCC[C@@H]3C#N)cc2C(N)=O)cc1` (single isomer, unassigned) [Example 17-93, 1-[(1R,2R or 1S,2S)-2-cyanocyclohexyl]-3-({4-[(1-methylethyl)sulfamoyl]phenyl}amino)-1H-pyrazole-4-carboxamide] was 1 nM; that for `N#C[C@H]1CCCC[C@@H]1n1cc(C(N)=O)c(Nc2ccc(C(F)(F)F)cc2)n1` (single isomer, unassigned) [Example 17-105, 1-[(1S,2S or 1R,2R)-2-cyanocyclohexyl]-3-{[4-(trifluoromethyl)phenyl]amino}-1H-pyrazole-4-carboxamide] was 19 nM. Under `N#C[C@H]1C[C@H](O)CC[C@@H]1n1cc(C(N)=O)c(Nc2ccc(Cl)c(F)c2)n1` (single isomer, unassigned) [Example 25-3, 3-[(4-chloro-3-fluorophenyl)amino]-1-[(1S,2S,4R or 1R,2R,4S)-2-cyano-4-hydroxycyclohexyl]-1H-pyrazole-4-carboxamide] stands 26 nM; under `CC(C)(CF)c1ccc(Nc2nn([C@H]3CC[C@@H](O)C[C@@H]3C#N)cc2C(N)=O)cc1` (single isomer, unassigned) [Example 25-9, 1-[(1S,2S,4R or 1R,2R,4S)-2-cyano-4-hydroxycyclohexyl]-3-{[4-(2-fluoro-1,1-dimethylethyl)phenyl]amino}-1H-pyrazole-4-carboxamide], 6 nM. For the molecule `N#C[C@H]1C[C@H](O)CCC1n1cc(C(N)=O)c(Nc2ccnc(F)c2)n1` (single isomer, unassigned) [Example 25-21, 1-[(1S,2S,4R or 1R,2R,4S)-2-cyano-4-hydroxycyclohexyl]-3-[(2-fluoropyridin-4-yl)amino]-1H-pyrazole-4-carboxamide], the IC50 turned out to be 11 nM. Under `N#C[C@H]1C[C@H](O)CCC1n1cc(C(N)=O)c(Nc2ccnc(F)c2)n1` (single isomer, unassigned) [Example 25-25, 1-[(1S,2S,4R or 1R,2R,4S)-2-cyano-4-hydroxycyclohexyl]-3-[2-fluoropyridin-4-yl)amino]-1H-pyrazole-4-carboxamide] stands 210 nM; under `C[C@@H]1C[C@@H](C)N1[C@H]1CC[C@H](n2cc(C(N)=O)c(Nc3ccc(C(F)(F)F)cc3)n2)[C@@H](C#N)C1` (single isomer, unassigned) [Example 28-9, 1-{(1S,2S,4S or 1R,2R,4R)-2-cyano-4-[(2R,4R or 2S,4S)-2,4-dimethylazetidin-1-yl]cyclohexyl}-3-{[4-(trifluoromethyl)phenyl]amino}-1H-pyrazole-4-carboxamide], 84 nM; under `N#C[C@H]1C[C@@H](N2CC3(CCC3)C2)CC[C@@H]1n1cc(C(N)=O)c(Nc2ccc(C(F)(F)F)cc2)n1` (single isomer, unassigned) [Example 28-17, 1-[(1S,2S,4S or 1R,2R,4R)-4-(2-azaspiro[3.3]hept-2-yl)-2-cyanocyclohexyl]-3-{[4-(trifluoromethyl)phenyl]amino}-1H-pyrazole-4-carboxamide], 121 nM. Under `C[C@H]1C[C@H](C)N1[C@@H]1CC[C@H](n2cc(C(N)=O)c(Nc3ccc(C(F)(F)F)cc3)n2)[C@@H](C#N)C1` (single isomer, unassigned) [Example 28-20, 1-{(1S,2S,4R or 1R,2R,4S)-2-cyano-4-[(2S,4S or 2R,4R)-2,4-dimethylazetidin-1-yl]cyclohexyl}-3-{[4-(trifluoromethyl)phenyl]amino}-1H-pyrazole-4-carboxamide] stands 355 nM; under `C[C@H]1C[C@H](C)N1[C@H]1CC[C@H](n2cc(C(N)=O)c(Nc3ccc(C(F)(F)F)cc3)n2)[C@@H](C#N)C1` (single isomer, unassigned) [Example 28-21, 1-{(1S,2S,4S or 1R,2R,4R)-2-cyano-4-[(2S,4S or 2R,4R)-2,4-dimethylazetidin-1-yl]cyclohexyl}-3-{[4-(trifluoromethyl)phenyl]amino}-1H-pyrazole-4-carboxamide], 335 nM; under `N#C[C@H]1C[C@H](N2CC3(CCC3)C2)CC[C@@H]1n1cc(C(N)=O)c(Nc2ccc(C(F)(F)F)cc2)n1` (single isomer, unassigned) [Example 28-24, 1-[(1S,2S,4R or 1R,2R,4S)-4-(2-azaspiro[3.3]hept-2-yl)-2-cyanocyclohexyl]-3-{[4-(trifluoromethyl)phenyl]amino}-1H-pyrazole-4-carboxamide], 240 nM. Take `C[C@@H]1C[C@@H](C)N1[C@@H]1CC[C@H](n2cc(C(N)=O)c(Nc3ccc(C(F)(F)F)cc3)n2)[C@@H](C#N)C1` (single isomer, unassigned) [Example 28-30, 1-{(1S,2S,4R or 1R,2R,4S)-2-cyano-4-[(2R,4R or 2S,4S)-2,4-dimethylazetidin-1-yl]cyclohexyl}-3-{[4-(trifluoromethyl)phenyl]amino}-1H-pyrazole-4-carboxamide]: the IC50 came to 575 nM.

For the molecule `N#C[C@H]1C[C@H](N2CC3(CCC3)C2)CC[C@@H]1n1cc(C(N)=O)c(Nc2ccc([C@H](O)C(F)(F)F)cc2)n1` (single isomer, unassigned) [Example 28-51, 1-[(1S,2S,4R or 1R,2R,4S)-4-(2-azaspiro[3.3]hept-2-yl)-2-cyanocyclohexyl]-3-({4-[(1S or 1R)-2,2,2-trifluoro-1-hydroxyethyl]phenyl}amino)-1H-pyrazole-4-carboxamide], the half-maximal inhibitory concentration (IC50) was 37 nM.

Take `N#C[C@H]1C[C@H](N2CCC2)CC[C@@H]1n1cc(C(N)=O)c(Nc2ccc(CC(F)(F)F)cc2)n1` (single isomer, unassigned) [Example 28-53, 1-[(1S,2S,4R or 1R,2R,4S)-4-azetidin-1-yl-2-cyanocyclohexyl]-3-{[4-(2,2,2-trifluoroethyl)phenyl]amino}-1H-pyrazole-4-carboxamide]: the IC50 was determined as 8 nM. With `N#C[C@H]1C[C@@H](N2CCC2)CC[C@@H]1n1cc(C(N)=O)c(Nc2ccc(CC(F)(F)F)cc2)n1` (single isomer, unassigned) [Example 28-69, 1-[(1S,2S,4S or 1R,2R,4R)-4-azetidin-1-yl-2-cyanocyclohexyl]-3-{[4-(2,2,2-trifluoroethyl)phenyl]amino}-1H-pyrazole-4-carboxamide], the IC50 is 16 nM. In the case of `CN(C)[C@H]1CC[C@H](n2cc(C(N)=O)c(Nc3ccc(F)cc3)n2)[C@@H](C#N)C1` (single isomer, unassigned) [Example 28-94, 1-[(1S,2S,4S or 1R,2R,4S)-2-cyano-4-(dimethylamino)cyclohexyl]-3-[(4-fluorophenyl)amino]-1H-pyrazole-4-carboxamide], the IC50 was 44 nM.

For the molecule `CN(C)[C@@H]1CC[C@H](n2cc(C(N)=O)c(Nc3ccc(OC(F)F)cc3)n2)[C@@H](C#N)C1` (single isomer, unassigned) [Example 28-95, 1-[(1S,2S,4R or 1R,2R,4S)-2-cyano-4-(dimethylamino)cyclohexyl]-3-{[4-(difluoromethoxy)phenyl]amino}-1H-pyrazole-4-carboxamide], the IC50 is 32 nM. For the molecule `COC1CN([C@H]2CC[C@H](n3cc(C(N)=O)c(Nc4ccc(C(F)(F)F)cc4)n3)[C@@H](C#N)C2)C1` (single isomer, unassigned) [Example 28-99, 1-[(1S,2S,4S or 1R,2R,4R)-2-cyano-4-(3-methoxyazetidin-1-yl)cyclohexyl]-3-{[4-(trifluoromethyl)phenyl]amino}-1H-pyrazole-4-carboxamide], the IC50 came out at 32 nM. Under `CN(C)[C@H]1CC[C@H](n2cc(C(N)=O)c(Nc3ccc(F)cc3)n2)[C@@H](C#N)C1` (single isomer, unassigned) [Example 28-102, 1-[(1S,2S,4S or 1R,2R,4R)-2-cyano-4-(dimethylamino)cyclohexyl]-3-[(4-fluorophenyl)amino]-1H-pyrazole-4-carboxamide] stands 27 nM; under `CN(C)[C@H]1CC[C@H](n2cc(C(N)=O)c(Nc3ccc(OC(F)F)cc3)n2)[C@@H](C#N)C1` (single isomer, unassigned) [Example 28-104, 1-[(1S,2S,4S or 1R,2R,4R)-2-cyano-4-(dimethylamino)cyclohexyl]-3-{[4-(difluoromethoxy)phenyl]amino}-1H-pyrazole-4-carboxamide], 13 nM.

Consider `N#C[C@H]1C[C@@H](N2CC(F)C2)CC[C@@H]1n1cc(C(N)=O)c(Nc2ccc(C(F)(F)F)cc2)n1` (single isomer, unassigned) [Example 28-105, 1-[(1S,2S,4S or 1R,2R,4R)-2-cyano-4-(3-fluoroazetidin-1-yl)cyclohexyl]-3-{[4-(trifluoromethyl)phenyl]amino}-1H-pyrazole-4-carboxamide], for which the IC50 turned out to be 30 nM.

As for `N#C[C@H]1C[C@@H](NCC(F)(F)F)CC[C@@H]1n1cc(C(N)=O)c(Nc2ccnc(F)c2)n1` (single isomer, unassigned) [Example 28-111, 1-{(1S,2S,4S or 1R,2R,4R)-2-cyano-4-[(2,2,2-trifluoroethyl)amino]cyclohexyl}-3-[(2-fluoropyridin-4-yl)amino]-1H-pyrazole-4-carboxamide], the IC50 stood at 16 nM.
